Test system: influenza virus subtype A mice-lung adaptive strain FM1
Settings: mouse, in vivo

NC(=O)c1ncn([C@@H]2O[C@H](CO)[C@@H](O)[C@H]2O)n1 [Ribavirin]
Death rate %: 63%

From patent US12178871B2 (priority 2018, dated 2024)
